Assays:
[1] = target: T1, NK2R WT (human TACR2) (Homo sapiens, UniProt P21452); experiment: BRET-based cAMP assay (Gs activation), NK2R; type: cell-based; settings: Fig. S2A; compared with the other receptor/agonist conditions
T1 construct: host or cells: COS7 cells, transient calcium-precipitation transfection

Chains of the proteins cited; added tags and fusions are not shown.
UniProt P21452, whole entry: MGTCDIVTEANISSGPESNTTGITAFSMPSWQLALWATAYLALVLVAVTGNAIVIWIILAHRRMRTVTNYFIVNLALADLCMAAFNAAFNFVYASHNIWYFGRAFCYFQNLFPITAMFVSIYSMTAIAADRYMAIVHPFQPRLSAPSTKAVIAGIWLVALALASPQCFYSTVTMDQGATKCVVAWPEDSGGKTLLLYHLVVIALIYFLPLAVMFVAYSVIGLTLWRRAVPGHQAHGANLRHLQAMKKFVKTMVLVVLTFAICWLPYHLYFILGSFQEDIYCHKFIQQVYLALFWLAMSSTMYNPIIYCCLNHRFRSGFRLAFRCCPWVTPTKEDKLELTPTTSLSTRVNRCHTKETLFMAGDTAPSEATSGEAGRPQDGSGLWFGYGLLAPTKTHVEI

[2] = target: T1, NK2R WT (human TACR2); experiment: IP3 accumulation assay (Gq activation), NK2R; type: cell-based; settings: Fig. S2B; compared with SP on NK1R and NKA on NK1R and NK2R

## CSCC[C@H](NC(=O)[C@H](CC(C)C)NC(=O)CNC(=O)[C@H](Cc1ccccc1)NC(=O)[C@H](Cc1ccccc1)NC(=O)[C@H](CCC(N)=O)NC(=O)[C@H](CCC(N)=O)NC(=O)[C@@H]1CCCN1C(=O)[C@H](CCCCN)NC(=O)[C@@H]1CCCN1C(=O)[C@@H](N)CCCNC(=N)N)C(N)=O [SP, substance P]
[1]
  potency of SP activation of NK2R in BRET-based cAMP assay: substantially lower potency, differing by several orders of magnitude
[2]
  potency of SP activation of NK2R in IP3 accumulation assay: two orders of magnitude lower

Reference: paper PMC12145819, “Challenging activity and signaling bias in tachykinin NK1 and NK2 receptors by truncated neuropeptides” (The Journal of Biological Chemistry, 2025)
